Reference: patent US12059472B2 (Bayer Aktiengesellschaft, priority 2016, dated 2024)

System: Caco-2 cells
Assay: Caco-2 flux assay for cell permeability
Format: in vitro ADME
Conditions: Caco-2, basal to apical, 2 hours
Method: The cell permeability of a substance can be investigated by means of in vitro testing in a flux assay using Caco-2 cells [M. D. Troutman and D. R. Thakker, Pharm. […] For this purpose, the cells were cultured for 15-16 days on 24-well filter plates. For the determination of permeation, the respective test substance was applied in a HEPES buffer to the cells either apically (A) or basally (B) and incubated for 2 hours. After 0 hours and after 2 hours, samples were taken from the cis and trans compartments. The samples were separated by HPLC (Agilent 1200, Böblingen, Germany) using reverse phase columns. The HPLC system was coupled via a Turbo Ion Spray Interface to a Triple Quadropol mass spectrometer API 4000 (AB SCIEX Deutschland GmbH, Darmstadt, Germany).
Of critical importance for toxophors which are released intracellularly is the permeability from B to A [Papp (B-A)] and the ratio of Papp (B-A) to Papp (A-B) (efflux ratio): the lower this permeability, the slower the active and passive transport processes of the substance through the monolayer of Caco-2 cells.

CC(C)(C)[C@H](c1cc(-c2cc(F)ccc2F)cn1Cc1ccccc1)N(CCCN)C(=O)CO [Example M4, N-(3-Aminopropyl)-N-{(1R)-1-[1-benzyl-4-(2,5-difluorophenyl)-1H-pyrrol-2-yl]-2,2-dimethylpropyl}-2-hydroxyacetamide]
Papp (B-A): 21.3 ×10⁻⁶ cm/s
